In article PMC8317135 (Journal of medicinal chemistry, 2021):

How the values were obtained:
hP2Y14R = molecular target: T1, hP2Y14R (Homo sapiens, UniProt Q15391)
T1 sequence (Q15391 1-338): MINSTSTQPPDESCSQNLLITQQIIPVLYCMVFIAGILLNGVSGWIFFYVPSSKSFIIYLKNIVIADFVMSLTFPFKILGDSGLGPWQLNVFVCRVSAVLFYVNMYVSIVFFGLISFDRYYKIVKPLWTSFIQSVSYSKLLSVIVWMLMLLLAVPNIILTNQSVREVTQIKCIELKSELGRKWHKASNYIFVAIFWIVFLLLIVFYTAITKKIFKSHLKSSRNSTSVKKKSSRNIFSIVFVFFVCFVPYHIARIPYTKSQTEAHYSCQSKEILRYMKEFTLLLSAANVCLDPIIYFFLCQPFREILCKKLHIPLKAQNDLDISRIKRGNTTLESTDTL

in vivo = settings: male, Wistar, rat, iv, 0.5 mg/kg

## O=C(O)c1cc(-c2ccc(-c3cc(CO)on3)cc2)c2ccc(-c3ccc(C(F)(F)F)cc3)cc2c1 [Compound 32, 4-(4-(5-(Hydroxymethyl)isoxazol-3-yl)phenyl)-7-(4-(trifluoromethyl)phenyl)-2-naphthoic Acid]
hP2Y14R
  fold increase in affinity compared to the triazole series: 20 fold
In vivo
  Tmax at 24 h: 4.98 min
